## OPERA 2.9 data: melting point values

Source: data files of OPERA 2.9 (Mansouri et al.), github.com/kmansouri/OPERA.

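OPERA's authors assembled the values from existing databases and did not measure them anew. One number stands for a compound and property, with no spread given. Conditions of the individual experiments are not part of the data. Where a salt, mixture or single isomer is drawn, the source does not say that exactly this form was tested. Some entries may be limits or estimates that an upstream database listed as plain numbers.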

The melting point is given in degrees Celsius.
The databases behind each value are named after "via".

O=C(O)c1cc(C(=O)O)cc(S(=O)(=O)O)c1 [5-Sulfobenzene-1,3-dicarboxylic acid] is reported with mp 257.5 °C (via eChemPortal).
O=Cc1ccc(-c2ccc(F)cc2)o1 [5-(4-Fluoro-phenyl)-furan-2-carbaldehyde] is reported with mp 80 °C (via OCHEM).
O=C1CC2(CCCCC2)C(=O)O1 [2-oxaspiro[4.5]decane-1,3-dione] is reported with mp 56 °C (via OCHEM).
N#Cc1cc2c(nc1Cl)CCCC2 [2-chloro-5,6,7,8-tetrahydroquinoline-3-carbonitrile] is reported with mp 129 °C (via OCHEM).
O=S(=O)(c1ccc(Cl)nc1)N1CCCC1 [2-Chloro-5-(pyrrolidine-1-sulfonyl)pyridine] is reported with mp 150 °C (via OCHEM).
COc1ccccc1NC(=O)C(N=Nc1ccc(Cl)cc1[N+](=O)[O-])C(C)=O (stereo unspecified) [C.I. Pigment Yellow 73] is reported with mp 263 °C (via eChemPortal).
FC(F)(F)C(F)(F)C(F)(F)C(F)(F)C(F)(F)C(F)(F)C(F)(F)CCI [1-Iodo-1H,1H,2H,2H-perfluorononane] is reported with mp 43 °C (via ChemicalBook).
CCOC(=O)NS(=O)(=O)c1ccc(Cl)s1 [Ethyl N-[(5-chloro-2-thienyl)sulfonyl]carbamate] is reported with mp 52.5 °C (via eChemPortal).
CC(=O)NCCc1ccc(S(=O)(=O)Cl)cc1 [p-(2-Acetamidoethyl)benzenesulphonyl chloride] is reported with mp 132 °C (via OCHEM).
O=C(O)c1ccccc1C(=O)N1CCCCC1 [Benzoic acid, o-(piperidinocarbonyl)-] is reported with mp 110 °C (via OCHEM).
O=C(O)c1ccccc1Cc1nc2ccccc2s1 [2-(1,3-benzothiazol-2-ylmethyl)benzoic acid] is reported with mp 183 °C (via OCHEM).
COC(=O)c1ccnnc1 [Methyl pyridazine-4-carboxylate] is reported with mp 65.5 °C (via OCHEM).
CNCCC(O)c1ccccc1 (stereo unspecified) [3-(Methylamino)-1-phenyl-1-propanol] is reported with mp 63 °C (via eChemPortal).
Cc1oc2cc(O)ccc2c(=O)c1Oc1ccccc1 [4H-1-Benzopyran-4-one, 7-hydroxy-2-methyl-3-phenoxy-] is reported with mp 236 °C (via OCHEM).
O=C1CC(c2ccccc2)N1 (stereo unspecified) [4-phenylazetidin-2-one] is reported with mp 108 °C (via OCHEM).
COc1ccc2oc(C(=O)O)c(C)c2c1 [5-Methoxy-3-methyl-benzofuran-2-carboxylic acid] is reported with mp 203 °C (via OCHEM).
Cc1cccc(C)c1NC(=O)CCCCl [4-Chloro-N-(2,6-dimethylphenyl)butanamide] is reported with mp 105 °C (via OCHEM).
Cc1cccc(OC(C)C(=O)O)c1 (stereo unspecified) [2-(3-Methylphenoxy)propanoic acid] is reported with mp 86 °C (via OCHEM).
C=CCNC(=O)CC#N [2-cyano-N-(prop-2-en-1-yl)acetamide] is reported with mp 66 °C (via OCHEM).
O=C(O)c1cc2c(cc1[N+](=O)[O-])OCCO2 [7-nitro-2,3-dihydro-1,4-benzodioxine-6-carboxylic acid] is reported with mp 222 °C (via OCHEM).
CN(C)S(=O)(=O)c1ccc(Cl)c(N)c1 [3-Amino-4-chloro-N,N-dimethylbenzene-1-sulfonamide] is reported with mp 120 °C (via OCHEM).
O=C(O)CNC(=O)c1ccccc1Cl [Acetic acid,  2-((2-chlorobenzoyl)amino)-] is reported with mp 183 °C (via OCHEM).
O=C(O)c1cc2ccc(F)cc2[nH]1 [6-Fluoroindole-2-carboxylic acid] is reported with mp 228 °C (via OCHEM).
Cc1nc2ccccc2c(C)c1C(=O)O [2,4-dimethylquinoline-3-carboxylic Acid] is reported with mp 187 °C (via OCHEM).
Cn1ccnc1C(N)c1ccccc1 (stereo unspecified) [1-(1-Methyl-1H-imidazol-2-yl)-1-phenylmethanamine] is reported with mp 52 °C (via OCHEM).
O=C1CCc2cc(C(=O)CCl)ccc2N1 [6-(chloroacetyl)-3,4-dihydroquinolin-2(1H)-one] is reported with mp 213 °C (via OCHEM).
CCN(CC)c1ccc2cc(-c3n(C)c4ccccc4[n+]3C)c(=O)oc2c1.[Cl-] is reported with mp 349.8 °C (via eChemPortal).
O=C(CBr)c1ccc(S(=O)(=O)N2CCOCC2)cc1 [2-Bromo-1-[4-(morpholine-4-sulfonyl)phenyl]ethan-1-one] is reported with mp 149 °C (via OCHEM).
O=C(CCl)N1CCN(c2ccc([N+](=O)[O-])cc2)CC1 [2-Chloro-1-[4-(4-nitrophenyl)piperazin-1-yl]ethan-1-one] is reported with mp 130 °C (via OCHEM).
O=C(O)Cc1csc(-c2cccnc2)n1 [[2-(Pyridin-3-yl)-1,3-thiazol-4-yl]acetic acid] is reported with mp 116 °C (via OCHEM).
N#Cc1ccc(NC(N)=O)cc1 [N-(4-Cyanophenyl)urea] is reported with mp 235 °C (via OCHEM).
O=C(Cl)c1cc(Cl)nc2ccccc12 [2-Chloroquinoline-4-carbonyl chloride] is reported with mp 86 °C (via OCHEM).
O=C(O)c1cc(-c2ccc(Cl)s2)nc2ccccc12 [2-(5-chlorothiophen-2-yl)quinoline-4-carboxylic acid] is reported with mp 243 °C (via OCHEM).
Cc1nn(-c2ccccc2)c2nc(Cl)c(C=O)cc12 is reported with mp 190 °C (via OCHEM).
NC(=O)C1CCN(C(=O)CCl)CC1 [1-(chloroacetyl)piperidine-4-carboxamide] is reported with mp 137 °C (via OCHEM).
Cc1ccc(S(=O)(=O)N2CCOCC2)cc1N [2-Methyl-5-(morpholine-4-sulfonyl)aniline] is reported with mp 131 °C (via OCHEM).
CC1=NN(c2cccc(C(F)(F)F)c2)C(=O)C1 is reported with mp 128 °C (via OCHEM).

The first 4 entries again:

{"smiles": "O=C(O)c1cc(C(=O)O)cc(S(=O)(=O)O)c1", "name": "5-Sulfobenzene-1,3-dicarboxylic acid", "mp (°C)": "257.5", "via": "eChemPortal"}
{"smiles": "O=Cc1ccc(-c2ccc(F)cc2)o1", "name": "5-(4-Fluoro-phenyl)-furan-2-carbaldehyde", "mp (°C)": "80", "via": "OCHEM"}
{"smiles": "O=C1CC2(CCCCC2)C(=O)O1", "name": "2-oxaspiro[4.5]decane-1,3-dione", "mp (°C)": "56", "via": "OCHEM"}
{"smiles": "N#Cc1cc2c(nc1Cl)CCCC2", "name": "2-chloro-5,6,7,8-tetrahydroquinoline-3-carbonitrile", "mp (°C)": "129", "via": "OCHEM"}